{"source": "patent US7691858B2", "about": "“Kinase inhibitors and methods of use thereof” (TargeGen, Inc., priority 2006, dated 2010)", "test_system": "EC", "experiment": "EC proliferation", "type": "cell-based", "data": [{"smiles": "Nc1nc(N)c2nc(-c3cccc(O)c3)cnc2n1", "note": "[Compound II, 3-(2,4-diaminopteridin-6-yl)phenol]", "values": [{"measurement": "effect on EC proliferation", "value": "strongly inhibited"}]}]}
